Structures are written as SMILES. The list shows a part of the results.

This assay concerns A. baumannii ATCC 17978. The experiment in a line: relative growth (fraction of control); higher = less inhibition. The note with it: 50 µM.
For `CC(=O)N[C@H]1[C@H]([C@H](O)[C@H](O)CO)O[C@](O)(C(=O)O)C[C@@H]1O`, the relative growth worked out at 0.946.
For the compound `NC(=O)c1c(Cl)ncc2c1NCC2`, the relative growth was found to be 0.95.
Next, `Nc1ccc(S(=O)(=O)Nc2ccnn2-c2ccccc2)cc1`: 1.04.
In turn, `O=C(C[C@@H]1C=C[C@@H](NC(=O)c2ccncc2)[C@H](CO)O1)NCc1ccncn1` came in with a relative growth of 1.12.
Consider `O=C(NCC(O)CO)c1c(I)c(C(=O)NCC(O)CO)c(I)c(N(CCO)C(=O)CO)c1I` (centres undefined), for which the relative growth worked out at 1.11.
Turning to `CCC(=O)c1c(O)cc(O)cc1O`, the relative growth was determined as 1.14.
Next, `CCc1c(C)[nH]c2c1C(=O)C(CN1CCOCC1)CC2.Cl` (centres undefined): 0.935.
`C[C@@H](O)/C=C/c1cccc[n+]1C` yielded a relative growth of 1.16.
In turn, `Cc1n[nH]c(=O)nc1NCCCOC(C)C` showed a relative growth of 0.905.
Then `CCOc1ccnc2c1c(=O)n(CC(N)=O)c(=O)n2C`, with 1.22.
Compound `CNC(=O)C[C@@H]1CC[C@@H]2[C@H](COC[C@H](O)CN2C(=O)c2ccccn2)O1` gave a relative growth of 0.862.
Consider `CN(C)C(=O)C[C@@H]1CC[C@H](NC(=O)C2CCOCC2)[C@@H](CO)O1`, for which the relative growth was determined as 0.989.
As to `COc1ccc(S(=O)(=O)N(C)C[C@H]2Oc3cc(C#CC4CCCC4)ccc3S(=O)(=O)N([C@@H](C)CO)C[C@@H]2C)cc1`, the relative growth came to 1.09.
With `COCN(C#N)c1nc(N(C)C)nc(N(C)C)n1`, the relative growth was found to be 0.933.
Then `FC(F)(Cl)C(F)(F)Cl`, with 1.03.
Then `NCCC(=O)N1c2ccccc2Sc2ccccc21`, with 0.949.
Consider `Cc1ccc(S[C@]2(C(=O)NCCCN(C)C)CC(=O)N(Cc3ccccc3C(F)(F)F)[C@@H]2c2ccc(CO)cc2)cc1`, for which the relative growth turned out to be 1.01.
Compound `C[C@H](CO)N1C[C@H](C)[C@@H](CN(C)Cc2ccc(Oc3ccccc3)cc2)Oc2cc(-c3ccncc3)ccc2S1(=O)=O` gave a relative growth of 1.34.
`CC1Cc2ccccc2N1NC(=O)c1ccc(Cl)c(S(N)(=O)=O)c1` (centres undefined) displayed a relative growth of 0.899.
Regarding `COCC#Cc1ccc2c(c1)O[C@H](CN(C)Cc1ccc(F)cc1)[C@H](C)CN([C@H](C)CO)S2(=O)=O`, the relative growth worked out at 0.715.
`O=C(C[C@@H]1C=C[C@H](NC(=O)CN2CCOCC2)[C@H](CO)O1)NCc1cccc(F)c1` showed a relative growth of 1.12.
The compound `O=S(=O)([O-])c1cc(I)c(O)c2ncccc12.[Na+]` yielded a relative growth of 0.343.
`O=C(O)c1cncnc1N1CCCC1` yielded a relative growth of 0.966.
Turning to `CCOn1c(=O)c(=O)n(OC)c2ccccc21`, the relative growth is 1.03.
Compound `COCC(=O)N(C)C[C@H]1Oc2cc(C#Cc3ccccc3)ccc2S(=O)(=O)N([C@H](C)CO)C[C@H]1C` yielded a relative growth of 0.903.
`O[C@@H]1[C@@H](O)[C@H](Nc2ccccc2)OC[C@H]1O`: the relative growth stood at 0.881.
As to `COCC#Cc1ccc2c(c1)O[C@H](CN(C)C(=O)c1ccccc1F)[C@H](C)CN([C@@H](C)CO)S2(=O)=O`, the relative growth was 1.06.
`Cc1ccccc1NC(=O)C[C@H]1NCCNC1=O` registered a relative growth of 0.954.
Next, `CCCOc1c(-c2ccc3ccccc3n2)cnc2ccccc12`: 0.82; `CO[C@@H]1CN(C)C(=O)c2ccc(NS(C)(=O)=O)cc2OC[C@@H](C)N(C(=O)C2CCOCC2)C[C@@H]1C`: 0.892.
For the compound `CC(=O)OCC(=O)[C@@]1(O)CCC2C3CCC4=CC(=O)CC[C@]4(C)[C@@]3(F)[C@@H](O)C[C@@]21C` (some centres undefined), the relative growth was determined as 0.994.
Then `CC(C)(C)OC(=O)N1CC2(CNC(=O)O2)C1`, with 1.1.
As for `O=C(N[C@H]1CC[C@H](CCNS(=O)(=O)c2ccc(F)cc2)O[C@@H]1CO)C1CC1`, the relative growth worked out at 1.05.
Next, `O=C1O[C@@H](c2ccccc2)[C@@H](c2ccccc2)N2[C@@H](c3ccc(O)cc3)[C@]3(C(=O)Nc4ccc(C#CCCO)cc43)[C@@H](C(=O)NC[C@H](O)c3ccccc3)[C@H]12`: 0.989; `Cl.Clc1ccc(Cn2c(CN3CCCC3)nc3ccccc32)cc1`: 0.794.
Compound `Cc1cc(CC(=O)O)n(C)c1C(=O)c1ccc(Cl)cc1` had a relative growth of 1.03.
In turn, `COc1ccc(N2C[C@H](C(N)=O)CC2=O)cc1` yielded a relative growth of 0.897.
In the case of `COCC#Cc1ccc2c(c1)O[C@H](CN(C)C(=O)CN(C)C)[C@@H](C)CN([C@@H](C)CO)S2(=O)=O`, the relative growth was 0.973.
Turning to `C=CCC[C@H](Cc1ccc(F)cc1)C(=O)O[C@H](CNC(=O)[C@@H](CC=C)CC(=O)N[C@H](CO)Cc1ccccc1)c1ccccc1`, the relative growth stood at 1.12.
In the case of `COc1ccc([C@@H](N)c2ccncc2)cc1`, the relative growth was 1.07.
`CCOc1ccc(S(=O)(=O)[O-])c2cccnc12.[Na+]` registered a relative growth of 0.964.
Regarding `COc1c(O)cccc1O`, the relative growth was found to be 1.
As for `O=C(C[C@H]1C=C[C@H](NC(=O)c2cccnc2)[C@H](CO)O1)NCCN1CCCCC1`, the relative growth turned out to be 1.05.
`O=C(C[C@H]1CC[C@H](NS(=O)(=O)c2ccc(F)cc2)[C@H](CO)O1)N1CCC(Cc2ccccc2)CC1` showed a relative growth of 0.949.
`O=C(O)C[C@@H]1C=C[C@@H](NC(=O)c2ccncc2)[C@H](CO)O1`: the relative growth is 1.09.
Regarding `CC(=O)Nc1ncc([N+](=O)[O-])s1`, the relative growth was found to be 0.705.
Compound `O=C(C[C@H]1C=C[C@H](NS(=O)(=O)c2ccc(F)cc2)[C@@H](CO)O1)N1CCC(Cc2ccccc2)CC1` returned a relative growth of 0.637.
Then `C[C@@H]1CN([C@@H](C)CO)S(=O)(=O)c2ccc(C#Cc3cccc(F)c3)cc2O[C@H]1CN(C)C(=O)CN1CCOCC1`, with 0.662.
For the compound `O=C(O)C(O)C(O)C(O)C(O)C(=O)O` (centres undefined), the relative growth turned out to be 0.912.
`CCOC(=O)c1cccc(N)c1.CS(=O)(=O)O` returned a relative growth of 1.26.
As for `CC(C)NC(=O)N[C@@H]1C=C[C@H](CC(=O)O)O[C@H]1CO`, the relative growth is 0.931.
The compound `CSc1nc(=O)c(C)n[nH]1` came in with a relative growth of 1.01.
`COc1c2ccoc2nc2c(OC)c(OCC(O)C(C)(C)O)ccc12` (centres undefined) had a relative growth of 0.958.
Turning to `CC(C)C[C@@H]1NC(=O)[C@@H]2C[C@H](C(=O)NCCCCCCN(C)C)[C@H](c3cccc(OCCO)c3)N2C1=O`, the relative growth is 1.
Compound `COC(=O)Cc1c(C)[nH]c(=S)[nH]c1=O` displayed a relative growth of 0.972.
`CCCC#Cc1cnc2c(c1)C(=O)N([C@@H](C)CO)C[C@@H](C)[C@H](CN(C)S(=O)(=O)c1cccc(OC)c1)O2`: the relative growth stood at 0.73.
Then `COC(CNC(=O)C1CCN(S(=O)(=O)c2cccc3nsnc23)CC1)OC`, with 1.17; and `OC[C@H]1O[C@@H](O[C@H]2[C@H](O)[C@@H](O)[C@@H](O)O[C@@H]2CO)[C@H](O)[C@@H](O)[C@@H]1O`, with 1.02; and `NC[C@H](c1cccs1)N1CCCCCC1`, with 0.893.
In the case of `COc1cccc(NC(=O)N[C@H]2CC[C@H](CC(=O)N3CCOCC3)O[C@@H]2CO)c1`, the relative growth worked out at 0.942.
Then `CC[C@H]1OC(=O)[C@H](C)[C@@H](O[C@H]2C[C@@](C)(OC)[C@@H](O)[C@H](C)O2)[C@H](C)[C@@H](O[C@@H]2O[C@H](C)C[C@H](N(C)C)[C@H]2O)[C@](C)(O)C[C@@H](C)/C(=N\OCOCCOC)[C@H](C)[C@@H](O)[C@]1(C)O`, with 0.198.
Consider `CC/C=C\C/C=C\C/C=C\C/C=C\C/C=C\CCCC(=O)OCC` [OMEGA-3-ACID ESTERS (EPA shown)], for which the relative growth came out at 1.06.
`CCOC(=O)C(=O)N(C)CC(OC)OC` registered a relative growth of 0.925.
For `CSc1scc(-c2cc(Cl)cc(Cl)c2)c1C#N`, the relative growth amounted to 1.11.
The compound `c1ccc(Nc2ncnc3cc(-c4ccccc4)sc23)cc1` returned a relative growth of 1.05.
On to `O=C(O)CCCN=C1NC(=O)CC(=O)N1`, for which the relative growth came to 0.999.
In the case of `Cc1c(OCC(F)(F)F)ccnc1CS(=O)c1nc2ccccc2[nH]1` (centres undefined), the relative growth came out at 1.1.
Compound `Nc1nc(=O)c2nc(CNc3ccc(C(=O)N[C@@H](CCC(=O)O)C(=O)O)cc3)cnc2[nH]1` yielded a relative growth of 0.996.
`CCC(=O)O[C@H]1[C@H](O[C@@H]2[C@@H](C)[C@H](O[C@H]3C[C@@](C)(OC)[C@@H](O)[C@H](C)O3)[C@@H](C)C(=O)O[C@H](CC)[C@@](C)(O)[C@H](O)[C@@H](C)C(=O)[C@H](C)C[C@@]2(C)O)O[C@H](C)C[C@@H]1N(C)C.CCCCCCCCCCCCOS(=O)(=O)O` returned a relative growth of 0.898.
On to `C[C@H](CO)N1C[C@H](C)[C@@H](CN(C)C(=O)c2ccc3c(c2)OCO3)Oc2cc(-c3cncnc3)ccc2S1(=O)=O`, for which the relative growth was determined as 1.04.
Turning to `COc1cccc(NC(=O)N(C)C[C@H]2Oc3ncc(Br)cc3C(=O)N([C@H](C)CO)C[C@H]2C)c1`, the relative growth is 1.09.
Next, `C=CC[C@@H](CC(=O)N(CCO)Cc1ccccc1)C(=O)N[C@@H](COC(=O)[C@H](CC=C)Cc1ccc(F)cc1)Cc1c[nH]c2ccccc12`: 1.16; `CC(=O)N[C@@H](CC(C)C)C(=O)O`: 1.08; `Cc1ccccc1C(=O)Nc1ccc(C(=O)N2CCC[C@@H](O)c3cc(Cl)ccc32)c(C)c1`: 1.21.
As for `COC(=O)CC1(N)CCCCC1`, the relative growth was 0.998.
The compound `COCC#Cc1ccc2c(c1)O[C@@H](CN(C)S(=O)(=O)c1cccc(OC)c1)[C@@H](C)CN([C@H](C)CO)S2(=O)=O` registered a relative growth of 0.864.
For the compound `Cn1nnnc1SCC1=C(C(=O)[O-])N2C(=O)C(NC(=O)C(O)c3ccccc3)C2SC1.[Na+]` (centres undefined), the relative growth was found to be 1.
In turn, `NC[C@@H]1CC[C@@H](N)[C@@H](O[C@H]2[C@H](O)[C@@H](O[C@H]3O[C@H](CO)[C@@H](O)[C@H](N)[C@H]3O)[C@H](N)C[C@@H]2N)O1` displayed a relative growth of 1.09.
The compound `CN1CCN(C(=O)C[C@@H]2CC[C@@H]3[C@H](COC[C@H](O)CN3Cc3ccc4c(c3)OCO4)O2)CC1` had a relative growth of 0.984.
In the case of `Cl.N=C(N)NC(=O)c1nc(Cl)c(N)nc1N`, the relative growth came out at 1.04.
Regarding `CCCNC(=O)Cc1nnc[nH]1`, the relative growth was 1.17.
Next, `COc1cc(C)c(/C=C/C=C/C=C/C=C/C(=O)O)c(C)c1C`: 1.13.
For `CCOC(=O)COc1ccc(-c2nn[nH]n2)cc1`, the relative growth turned out to be 1.07.
Next, `CC(C)NC(=O)Cn1ccc([N+](=O)[O-])n1`: 1.04; `COCC(=O)Nc1ccc2c(c1)OC[C@H](C)N(Cc1cccc(F)c1)C[C@@H](C)[C@@H](OC)CN(C)C2=O`: 1.04; `NCC[C@@H]1CC[C@@H](NC(=O)c2ccccc2F)[C@H](CO)O1`: 1.
As to `O=C(c1ccc(Cl)cc1)c1coc2c1cc(O)c1ccccc12`, the relative growth amounted to 1.21.
The compound `C[C@H](CO)N1C[C@H](C)[C@@H](CN(C)S(=O)(=O)c2cn(C)cn2)Oc2cc(C#Cc3ccc(F)cc3)ccc2S1(=O)=O` came in with a relative growth of 0.88.
`Nc1nnc(SCC(=O)NC[C@H]2CCCO2)[nH]1` returned a relative growth of 0.998.
